AlphaSeq binding of Ab-14 light chain variants to a spike HR2 peptide

Binding partner: SARS-CoV-2 spike HR2 peptide, sequence PDVDLGDISGINAS.

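Phage display of a naive human antibody library on the peptide gave the parent. Designed CDR sequences, proposed from the first random library and measured here. Their group label is 14L_GP_HC (GP: Gaussian process model; HC: hill climbing; a sequence that several methods proposed may carry one label only). Affinity was read by AlphaSeq, a pooled yeast mating assay with surface-displayed partners. After mating in shaken culture at 30 °C for 16 h, diploids were selected and their barcode pairs sequenced. A regression on co-assayed BCL2-family reference pairs converts the normalised counts of each replicate to an apparent Kd. Mating was done six times.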

The variants keep the heavy chain, the linker and the frameworks of Ab-14 (scFv order VH, a 15-residue (Gly4Ser)3 linker, VL).
VH: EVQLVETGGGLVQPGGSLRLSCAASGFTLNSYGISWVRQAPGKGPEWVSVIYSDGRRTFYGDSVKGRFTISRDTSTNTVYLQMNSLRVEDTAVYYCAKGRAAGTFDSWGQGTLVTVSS
VL: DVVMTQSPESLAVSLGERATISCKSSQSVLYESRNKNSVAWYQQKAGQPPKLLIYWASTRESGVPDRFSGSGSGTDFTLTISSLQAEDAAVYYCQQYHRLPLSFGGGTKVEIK

Each variant is given by its three light chain CDRs, as the data file delimits them; those of the parent are KSSQSVLYESRNKNSVA, WASTRES, QQYHRLPLS. Values are log10 of the apparent Kd in nM; lower means stronger binding. "n.d." means that the variant was in the library but no mating with the target was seen in that replicate; the authors take this as a sign of poor binding, and no number exists.

CDR-L1	CDR-L2	CDR-L3	replicates, log10 nM	signal with controls
KSSQSVLMESRNCNSVA	DASTRES	QQYVRLPLS	0.33 0.79 0.61 0.70 0.44 0.94	0/18
KSSQSDLYESRNKNSVA	HASTRED	QQYHRLPLS	-0.23 -0.01 -0.26 -0.33 -0.21 -0.07	1/18 (2.51)
KSGQGELYESRNKNSVA	GASLRES	QQYHRLPLS	0.49 0.49 0.22 0.22 0.24 0.73	2/18 (2.89)
QISQSFLYESRNKNSVA	GASTRES	QQYHRLPLS	-0.58 -0.57 -0.74 -0.82 -0.58 -0.45	1/18 (2.54)
KVSQSQLYESGTKNSVA	NASSRES	QQYHRLPLS	0.41 0.43 0.43 0.34 0.26 0.48	2/18 (2.50)
KFSQSVLMESRNANSVA	DASTRES	QQYHRLPLS	-0.24 -0.36 -0.30 -0.34 -0.35 -0.20	0/18
KWSQSVLYESVNKNSVA	DASTRES	QQYHRLPLS	0.11 0.00 0.05 -0.39 0.15 0.24	0/18
KYYPSYLYESRNKNSVA	NASTRES	QQYHRLPLS	0.00 -0.29 -0.01 -0.54 -0.14 0.01	0/18
KLRQSTKYESRNQNSVA	WASTRMS	QQYHRLPLS	1.31 1.02 0.83 1.13 1.05 1.11	3/18 (2.14)
KSSISWLYEDRVKNSVA	GASTRES	QQYHRLPLS	0.60 0.42 0.48 0.47 0.43 0.63	4/18 (2.75)
KLSQSVLYEGRTKNSVA	NASTRES	QQYHRLPLS	0.13 -0.06 -0.11 -0.40 -0.03 -0.13	1/18 (3.98)
KESQSWTYESRNKNSVA	GASTRES	QQYHRLPLS	0.69 1.06 1.09 0.59 0.83 1.12	0/18
KSSWSWLYESRNKNSVA	GASFRES	QQYHRLPLS	0.30 0.02 0.17 0.17 0.05 0.23	0/18
KSSPSGLYESRNKNSVA	EASTRES	QQYHRLPLS	0.06 -0.05 -0.54 0.31 -0.23 0.10	0/18
KLSISELIESRNKNSVA	EASTRES	QQYHRLPLS	0.13 0.11 0.27 -0.09 0.27 0.10	0/18
KSSISYLYESMNKNSVA	AASTRES	QQYHRLPLS	0.20 0.41 0.28 -0.15 0.30 0.45	1/18 (2.87)
KSGCGWLYESRNKNSVA	GASTRES	QQYHRLPLS	0.79 0.65 0.53 0.76 0.91 0.90	2/18 (3.34)
KLSQSTLYDSYNKNSVA	WASTRES	QQYHRLPLS	n.d. n.d. 2.28 n.d. 2.35 n.d.	0/18
HSSLSVLYESRNKNSVA	HASTRES	QQYHRLPLS	1.19 1.42 1.12 0.98 1.20 1.45	0/18
KQSQSKLYESRNKNSVA	DASTRES	QQYHRLPLS	-0.15 -0.45 -0.33 -0.38 -0.39 -0.22	1/18 (2.34)
KVSQSYHYESRNKNSVA	GASTRES	QQYHRLPLS	0.69 0.50 0.49 0.14 0.73 0.14	1/18 (2.43)
KLSQSWLYESRAKNSVA	GASTRES	QQYHRLPLS	-0.15 -0.03 -0.07 -0.32 0.07 0.07	1/18 (2.72)
KIEQGVLYESRNKGSVA	GASVRES	QQYHRLPLS	-0.11 -0.12 0.00 -0.26 0.16 0.21	0/18
KSSISNLGESRNKNSVA	EASTRES	QQYHRLPLS	1.23 0.92 0.91 0.69 1.65 1.19	0/18
KSPQSYPYESRNKNSVA	GASTRES	QQYHRLPLS	0.00 -0.44 0.46 -0.47 -0.44 -0.23	0/18
HSSPSVYYESRNKNSVA	NASTREE	QDYHRLPLS	-0.17 -0.10 -0.31 -0.44 -0.18 -0.25	0/18
KSLWSVLLESNNKNSVA	HASTRED	QQYHRLPLS	0.18 0.82 1.07 0.77 0.80 1.39	0/18
KVSQSFLYESRNKNQVA	GASTRES	QQYHRLPLS	0.14 -0.13 -0.14 -0.23 -0.13 0.08	1/18 (1.89)
KVSQSWLYESRNKNSVA	GASTRES	QQYHRLPLI	0.61 0.67 0.32 0.61 0.44 0.71	0/18
KVSISYLLESRNKNSVA	EAKTRES	QQYHRLPLS	-0.07 -0.18 -0.43 -0.28 -0.39 -0.20	0/18
KLQQQWLYESRNKNSVA	SASTREE	QQYHRLPLS	0.41 0.42 0.68 0.33 0.55 0.83	2/18 (2.79)
HSSPSVCYESRNKNSVA	NASTRES	QQYHRLPLS	0.39 1.07 0.22 1.13 0.57 0.86	0/18
KVSESFLYESRNKNAVA	GASTRES	QQYHRLTLS	n.d. n.d. n.d. n.d. n.d. n.d.	0/18
KLEQSKHYESRNKNSVA	NASTRES	QQYHRLPLS	0.03 -0.01 -0.12 -0.34 -0.06 -0.17	1/18 (1.64)
KSQQGVPYESRNWNSVA	GASTRES	QQYHRLPLS	-0.01 -0.14 0.05 -0.14 0.11 -0.35	1/18 (2.15)
HSSQSVLYESRNKNSVA	NASTRES	QQYHRLPLQ	0.32 0.37 0.33 0.47 0.24 0.63	2/18 (3.56)

Picked from the list: the 2 lowest averages where every replicate gave a value.

| CDR-L1 | CDR-L2 | CDR-L3 | replicates, log10 nM | signal with controls |
|---|---|---|---|---|
| QISQSFLYESRNKNSVA | GASTRES | QQYHRLPLS | -0.58 -0.57 -0.74 -0.82 -0.58 -0.45 | 1/18 (2.54) |
| KQSQSKLYESRNKNSVA | DASTRES | QQYHRLPLS | -0.15 -0.45 -0.33 -0.38 -0.39 -0.22 | 1/18 (2.34) |

In the paper, a design with two or fewer of six values counts as a poor binder. Values of this round are not directly comparable with the first-round values of the same sequences. Of ten entries with the parent sequence, four were seen in most replicates (averages 0.34 to 2.37), three in one and three in none, so single entries are noisy. Three control strains display no target. For all light chain designs, 4% of the pairings with them gave a signal, with a median of 2.64 and one signal in twenty below 1.59, so weak values seen in few replicates may be background. Also given: how often the same scFv was detected with the empty control strains, with their mean in brackets.

Values reported by Li et al. 2023, doi:10.1038/s41467-023-39022-2 (FLAb copy).